In PubChem BioAssay AID652104 (National Center for Advancing Translational Sciences (NCATS), 2013):
The entries are a selection whose mix differs from that of the whole data set. Inconclusive results are not listed. Calls of active or inactive are those of the source. Calls come from the whole dose curve; as a rule, active = well fitted activation curve with a large enough effect; inconclusive = small, poorly fitted or top-dose-only effect, or another doubt; inactive = no such curve, though single readings can be large or run the other way.

Experiment: qHTS of TDP-43 Inhibitors; note: % of control where 0% means no effect; nearly all actives have a fitted effect of over 50% in size
Details: TDP-43 expressing yeast growth rescue, BacTiter-Glo, 24 h; series mostly up to 46.1 µM; growth rescue (activation): at the top concentration

SMILES	growth rescue (activation)
Oc1ccccc1CNc1ccccn1	inactive: -15.2%
O=C(NC(Sc1ccncn1)C(Cl)(Cl)Cl)c1ccccc1 (stereo unspecified)	inactive: 17%
CC(C)CC(=O)NC(Sc1ccc(Cl)cc1)C(Cl)(Cl)Cl (stereo unspecified)	inactive: -18.8%
Nc1cc(N)c2nonc2c1[N+](=O)[O-]	inactive: -13.3%
O=[N+]([O-])C1C(O)C(O)C([N+](=O)[O-])C(O)C1O (stereo unspecified)	inactive: 9.32%
CN(C(=O)Cc1ccc(Cl)c(Cl)c1)[C@H]1CCCC[C@H]1N1CCCC1	inactive: 0%
Cc1ccc(N/C(=N/P(=O)(N2CCOCC2)N2CCOCC2)N2CCOCC2)cc1	inactive: -6%
NC(=O)c1cc([N+](=O)[O-])cc([N+](=O)[O-])c1N	inactive: 4.45%
CN1CCCC(OC(=O)C(c2ccccc2)c2ccccc2)C1 (stereo unspecified)	inactive: -19.8%
COc1ccccc1OP(=O)(Nc1ccc(C)cn1)Oc1ccccc1OC	inactive: -25.8%
Cc1ccc(OP(=O)(Nc2nccs2)Oc2ccc(C)cc2)cc1	inactive: 6.88%
Nc1cccc2ccc([As](=O)(O)O)cc12	inactive: 4.81%
CCN(N=Nc1nonc1N)c1nonc1N	inactive: 15.3%
O=P(Nc1nc2ccc(Cl)cc2s1)(c1ccccc1)c1ccccc1	inactive: -2.3%
O=C(O)c1ccccc1[As](=O)(O)O	inactive: 13.1%
CC(=O)Nc1ccc([As](=O)(O)O)cc1	inactive: 9.92%
CCCC1OP(N)(=O)OCC1CC (stereo unspecified)	inactive: -4.57%
CCOP(=O)(Nc1ccccc1)OCC	inactive: -9.56%
Cc1cc(SC(NC(=O)c2ccc(F)cc2)C(Cl)(Cl)Cl)ncn1 (stereo unspecified)	inactive: -14.8%
CN(C(=O)Cc1ccc(Cl)c(Cl)c1)[C@H]1CCCC[C@@H]1N1CCCC1	inactive: 24.1%
Cc1ccc(NP(=O)(Oc2ccccc2F)Oc2ccccc2F)nc1	inactive: -7.78%
O=[N+]([O-])c1ncn(CCn2ncnc2[N+](=O)[O-])n1	inactive: 2%
CC(C)(C)C(=O)NC(Sc1ccncn1)C(Cl)(Cl)Cl (stereo unspecified)	inactive: -13.3%
O=C(O)CNc1ccc([As](=O)(O)O)cc1	inactive: -5.26%
O=[N+]([O-])c1cccc(NC2=NCC(CBr)S2)c1 (stereo unspecified)	inactive: 0.363%
COC(=O)C1(C)COP(=O)(Nc2ccccc2)OC1 (stereo unspecified)	inactive: 4.04%

SMILES	growth rescue (activation)
O=P1(N(CCCl)CCCl)OCCCS1 (stereo unspecified)	inactive: -3.33%
O=C(Nc1cc([As](=O)(O)O)ccc1O)c1ccccc1	inactive: -10.5%
CCN(/C(=N/P(=O)(N1CCOCC1)N1CCOCC1)N1CCOCC1)c1ccc(OC)cc1	inactive: -8.31%
Nc1ccc([As](=O)(O)c2ccc(N)cc2)cc1	inactive: -0.746%
c1cc(-c2nn[nH]n2)ccc1-c1nn[nH]n1	inactive: -2%
CC(C)=N/N=C(\N)N[N+](=O)[O-]	inactive: 1.73%
CC(C)c1nc(Nc2ccccc2)n(P(=O)(N(C)C)N(C)C)n1	inactive: 12.9%
CN(C)C(=O)OCCc1n(C)cc[n+]1C	inactive: 23.9%
COc1ccc(C2=NCC(CBr)S2)cc1 (stereo unspecified)	inactive: 1.91% [at 9.22 µM]
O=[N+]([O-])c1cc([N+](=O)[O-])c(CCNc2ccccc2)c([N+](=O)[O-])c1	inactive: 1.21%
CCc1nc2c(n1)c1c(non1O)c1c2no[n+]1[O-]	inactive: -13.9%
CC(=O)N1C2C3N(C(C)=O)C1C1N(C(C)=O)C(C(N1C(C)=O)N3C(C)=O)N2C(C)=O	inactive: -13.3%
O=[N+]([O-])c1cccc2n[nH]nc12	inactive: -16.3%
O=P(Nc1nccs1)(c1ccccc1)c1ccccc1	inactive: 15.5%
CC(C)C(=O)NC(Sc1ccccc1)C(Cl)(Cl)Cl (stereo unspecified)	inactive: -16.8%
c1nnnn1CCn1cnnn1	inactive: 8.03%
O=[As](O)(c1ccccc1)c1ccc(O)cc1	inactive: -25%
O=[N+]([O-])c1ncn(CCn2cnc([N+](=O)[O-])n2)n1	inactive: -1.63%
O=C(OC1CN2CCC1CC2)c1cccc(Cl)c1 (stereo unspecified)	inactive: 9%
Nc1ccc([As](=O)(O)c2ccc([N+](=O)[O-])cc2)cc1	inactive: -14.5%
C(Cc1nn[nH]n1)Cc1nn[nH]n1	inactive: 15.5%
CN(C)C1(CNC(=O)c2ccc(Cl)c(S(N)(=O)=O)c2)CCCCC1	inactive: 14.8%
O=P(Nc1ccccn1)(c1ccc(Br)cc1)c1ccc(Br)cc1	inactive: -16.6%
COc1ccc(N)c([N+](=O)[O-])c1[N+](=O)[O-]	inactive: -1.11%
O=P(Nc1nc2ccccc2s1)(c1ccccc1)c1ccccc1	inactive: -0.87%
C[C@H]1OP(=O)(Oc2ccccc2)[C@H](O)[C@H](O)[C@H]1N=[N+]=[N-] (stereo partly specified)	inactive: -3.17%

SMILES	growth rescue (activation)
O=C(OC1CN2CCC1CC2)c1ccccc1 (stereo unspecified)	inactive: -2.6%
CCC(=O)N1C2C3N(C(=O)CC)C1C1N(C(=O)CC)C(C(N1C(=O)CC)N3C(=O)CC)N2C(=O)CC	inactive: 5.96%
COC(=O)c1cc2c(s1)N=C(c1ccccc1)N(C)P2(=O)N1CCOCC1 (stereo unspecified)	inactive: 9.56%
Cc1ccc(OP(=O)(Nc2ccccn2)Oc2ccc(C)cc2)cc1	inactive: 0%
CC(=O)NC(SC(=S)N(CC(C)C)CC(C)C)C(Cl)(Cl)Cl (stereo unspecified)	inactive: 7.29%
Cc1ccccc1OP(=O)(Nc1ccccn1)Oc1ccccc1C	inactive: -3.35%
CC(NC(=O)COC(=O)C(O)(c1ccccc1)c1ccccc1)c1ccccc1 (stereo unspecified)	inactive: 15.3%
CN(C)C(=O)Oc1noc2ccccc12	inactive: -14.6%
O=c1c2cc([N+](=O)[O-])ccc2[nH]c2c([N+](=O)[O-])cc([N+](=O)[O-])cc12	inactive: -94.4%
c1ccc(-c2nn[nH]n2)c(-c2nn[nH]n2)c1	inactive: 3.43%
Cc1ccc(NP(=O)(Oc2cccc(C)c2)Oc2cccc(C)c2)nc1	inactive: 6.65%
O=C(NC1CCS(=O)(=O)C1)NP(=S)(Oc1ccccc1)Oc1ccccc1 (stereo unspecified)	inactive: 29%
CCNC(=S)/N=C(\N)N[N+](=O)[O-]	inactive: -9.14% [at 0.397 µM]
O=P1(N(CCCl)CCCl)OCCC2CCCCN21 (stereo unspecified)	inactive: -10.6%
Cc1ccccc1CN(C)C(=O)COC(=O)C(O)(c1ccccc1)c1ccccc1	inactive: -7.8%
C[C@@H]1C=CCP(=O)(Oc2ccccc2)O1 (stereo partly specified)	inactive: 12.4%
C[C@H]1OP(=O)(Oc2ccccc2)C[C@@H]2O[C@@H]21 (stereo partly specified)	inactive: 7.14%
N#C/C(=C\c1ccc(N(CCBr)CCBr)cc1)C(N)=O	inactive: 22.5%
CC(=O)c1ccc(N2CC2c2ccncc2)cc1 (stereo unspecified)	inactive: -8.68%
COC(=O)C1(C)COP(=O)(NCc2ccccc2)OC1 (stereo unspecified)	inactive: 1.68%
CC(=O)Nc1ccc([As](=O)(O)O)c(O)c1	inactive: -10.4%
CC(=O)Nc1ccc(Oc2c([N+](=O)[O-])cc([N+](=O)[O-])cc2[N+](=O)[O-])cc1	inactive: 4.28%
O=P1(Nc2nc3ccc(Cl)cc3s2)COc2ccccc2O1 (stereo unspecified)	inactive: 7.14%
CCOc1ccc(C2=NCC(CBr)S2)cc1 (stereo unspecified)	inactive: 7%
